Experimental data from ChEMBL document CHEMBL3797028, “Novel S1P1 receptor agonists - Part 4: Alkylaminomethyl substituted aryl head groups” (Eur J Med Chem, 2016).

By UniProt entry, the sequences of proteins in these tests, tags left out.
UniProt P21453, whole entry: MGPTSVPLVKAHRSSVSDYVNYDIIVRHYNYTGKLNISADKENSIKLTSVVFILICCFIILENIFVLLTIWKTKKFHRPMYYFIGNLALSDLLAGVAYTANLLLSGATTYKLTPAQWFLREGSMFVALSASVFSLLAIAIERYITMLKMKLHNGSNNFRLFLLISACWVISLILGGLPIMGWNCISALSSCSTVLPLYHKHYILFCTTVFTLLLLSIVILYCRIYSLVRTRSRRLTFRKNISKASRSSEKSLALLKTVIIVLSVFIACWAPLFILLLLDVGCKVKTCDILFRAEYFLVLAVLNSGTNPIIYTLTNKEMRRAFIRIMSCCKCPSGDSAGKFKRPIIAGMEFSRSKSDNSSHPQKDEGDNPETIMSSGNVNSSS

Biological target: Sphingosine 1-phosphate receptor 1 (Homo sapiens, UniProt P21453)
Assay: Agonist activity at human recombinant S1PR1 expressed in CHO cell membranes assessed as [35S]GTPgammaS binding preincubated for 30 mins followed by [35S]GTPgammaS addition measured after 1 hr by topcount analysis

Structure (SMILES) | EC50 [nM]
CCc1cc(-c2noc(-c3cc(C)cc(CN(C)C)c3)n2)cc(C)c1OC[C@@H](O)CNC(=O)CO | 8
CCc1cc(-c2noc(-c3cc(C)c(CN(C)C)s3)n2)cc(C)c1OC[C@@H](O)CNC(=O)CO | 0.9
